Experimental findings from patent EP4843985A1, “TRIAZOLOPYRIMIDINE DERIVATIVE, PREPARATION METHOD THEREFOR AND USE THEREOF” (dated 2026) are described below.

By UniProt entry, the sequences of proteins in these tests, tags left out. Residues count along the entry.
UniProt Q14191, 517-1238 limits assumed: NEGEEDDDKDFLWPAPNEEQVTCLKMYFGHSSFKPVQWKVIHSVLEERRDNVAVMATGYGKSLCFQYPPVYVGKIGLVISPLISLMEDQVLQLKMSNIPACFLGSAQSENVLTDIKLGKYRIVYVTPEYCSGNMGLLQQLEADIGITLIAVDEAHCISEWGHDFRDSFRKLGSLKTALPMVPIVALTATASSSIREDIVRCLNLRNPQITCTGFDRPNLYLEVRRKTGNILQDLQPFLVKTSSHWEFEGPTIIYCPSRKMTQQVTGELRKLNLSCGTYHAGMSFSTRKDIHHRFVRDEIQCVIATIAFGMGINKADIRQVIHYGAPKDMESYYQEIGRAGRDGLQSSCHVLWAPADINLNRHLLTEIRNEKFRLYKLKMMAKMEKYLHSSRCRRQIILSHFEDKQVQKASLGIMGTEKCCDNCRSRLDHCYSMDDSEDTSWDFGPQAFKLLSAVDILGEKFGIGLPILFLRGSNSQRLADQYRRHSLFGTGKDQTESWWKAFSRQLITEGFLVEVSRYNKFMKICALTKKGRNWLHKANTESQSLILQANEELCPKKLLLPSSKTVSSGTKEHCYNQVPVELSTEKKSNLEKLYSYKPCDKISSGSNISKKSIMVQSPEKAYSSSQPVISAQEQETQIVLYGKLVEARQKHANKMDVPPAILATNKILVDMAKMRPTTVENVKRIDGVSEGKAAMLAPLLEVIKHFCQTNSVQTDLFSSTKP

SMILES strings stand for the structures. pIC50: −log10 of the molar value. Where “and” joins values, the source holds several entries; their conditions need not be identical. Equal entries are not always repeated. Some results are limits rather than exact numbers.

Assay [1] concerns SW48 (CRC, MSI). The experiment in a line: Cell proliferation inhibition assay (CellTiter-Glo), SW48. Conditions: read-out: SW48 (CRC, MSI), 120 hours. Background: ATP-based viability assays read luminescence as a measure of living cells.
In assay [2] the test system is SW620 (CRC, MSS). The assay is described as follows: Cell proliferation inhibition assay (CellTiter-Glo), SW620. Conditions: read-out: SW620 (CRC, MSS), 120 hours.
Assay [3] deals with WRN protein (AA N517-P1238) (Homo sapiens, UniProt Q14191). The assay is described as follows: In vitro WRN enzymatic activity assay (ADP-Glo ATPase assay). Conditions: read-out: ADP-Glo; 10 nM WRN enzyme, 3 hours pre-incubation at 25°C, ssDNA substrate. Background: ADP-Glo first removes unused ATP, then detects ADP through luciferase.

As for `CCc1c(N2CCN(C(=O)c3ncnc(C)c3O)CC2)c(=O)n2nc(C3=CCC4(CCCO4)CC3)nc2n1CC(=O)Nc1ccc(C(F)(F)F)cc1Cl` (stereo not drawn), the pIC50 in assay [1] is 7.15; in assay [2], less than 5.00; in assay [3], 8.55.
In the case of `CCc1c(N2CCN(C(=O)c3ncnc(C)c3O)CC2)c(=O)n2nc(C3=CCC(n4cccn4)CC3)nc2n1CC(=O)Nc1ccc(C(F)(F)F)cc1Cl` (stereo not drawn), the pIC50 in assay [1] is 7.48; in assay [2], less than 5.00; in assay [3], 8.55.
For `CCc1c(N2CCN(C(=O)c3ncnc(C)c3O)CC2)c(=O)n2nc(C3=CCN(C(=O)N(C(C)C)C(C)C)CC3)nc2n1CC(=O)Nc1ccc(C(F)(F)F)cc1Cl`, the pIC50 in assay [1] is 7.32; in assay [2], less than 5.00; in assay [3], 8.16.
For the compound `CCc1c(N2CCN(C(=O)c3ncnc(C)c3O)CC2)c(=O)n2nc(C3=CCN(c4nnc(C)s4)CC3)nc2n1CC(=O)Nc1ccc(C(F)(F)F)cc1Cl`, the pIC50 was 7.22 and 7.33 in assay [1]; less than 5.00 in assay [2]; 8.33 in assay [3].
In the case of `[2H]C1([2H])CCC(c2nc3n4c(c(N5CCN(C(=O)c6ncnc(C)c6O)CC5)c(=O)n3n2)C(C)CC4C(=O)Nc2scc(C(F)(F)F)c2C)=CCO1` (single isomer, unassigned) [307-P4], the pIC50 in assay [1] is 8.03; in assay [2], less than 5.00; in assay [3] it was 8.95.
On the same counts, the results for `CCc1c(N2CCN(C(=O)c3ncnc(C)c3O)CC2)c(=O)n2nc(C3=CCN(C(=O)OC4CCCCC4)CC3)nc2n1CC(=O)Nc1ccc(C(F)(F)F)cc1Cl` are 7.30, 5.09 and 7.85.
On the same counts, the results for `CCc1c(N2CCN(C(=O)c3ncnc(C)c3O)CC2)c(=O)n2nc(C3=CCOCCC3)nc2n1CC(=O)Nc1ccc(C(F)(F)F)c2sccc12` are 7.57, less than 5.00 and 9.08.
Taken in the same sequence, the figures for `CCc1c(N2CCN(C(=O)c3ncnc(C)c3O)CC2)c(=O)n2nc(C3=CCC(c4nnc(C)s4)CC3)nc2n1CC(=O)Nc1ccc(C(F)(F)F)cc1Cl` (stereo not drawn) were 7.34, less than 5.00 and 8.37.
Take `CCc1c(N2CCN(C(=O)c3ncnc(C)c3O)CC2)c(=O)n2nc(C3=CCC(c4ncc(C)s4)CC3)nc2n1CC(=O)Nc1ccc(C(F)(F)F)cc1Cl` (racemic): the results for the pIC50 in assay [1], in assay [2] and in assay [3] were 7.03, less than 5.00 and 8.28, respectively.
Taken in the same sequence, the figures for `CCc1c(N2CCN(C(=O)c3ncnc(C)c3O)CC2)c(=O)n2nc(C3=CCN(c4ccccc4)CC3)nc2n1CC(=O)Nc1ccc(C(F)(F)F)cc1Cl` were 7.11, less than 5.00 and 8.19.
Consider `CCc1c(N2CCN(C(=O)c3ncnc(C)c3O)CC2)c(=O)n2nc(C3=CCC(OCC4CC4)CC3)nc2n1CC(=O)Nc1ccc(C(F)(F)F)cc1Cl` (stereo not drawn), for which the pIC50 in assay [1] was 7.26; in assay [2], less than 5.00; in assay [3], 8.35.
Turning to `[2H]C1([2H])CCC(c2nc3n(CC(=O)Nc4ccc(C(F)(F)F)c5ccccc45)c(CC)c(N4CCN(C(=O)c5ncnc(C)c5O)CC4)c(=O)n3n2)=CCO1`, the pIC50 was 7.31 in assay [1], less than 5.00 in assay [2] and 8.33 in assay [3].
As to `CCc1c(N2CCN(C(=O)c3ncnc(C)c3O)CC2)c(=O)n2nc(C3=CCC(OC(=O)N(C)C)CC3)nc2n1CC(=O)Nc1ccc(C(F)(F)F)cc1Cl` (stereo not drawn), the pIC50 in assay [1] is 7.36; in assay [2] it was less than 5.00; in assay [3], 8.57.
On the same counts, the results for `CCc1c(N2CCN(C(=O)c3ncnc(C)c3O)CC2)c(=O)n2nc(C3=CCC(S(=O)(=O)c4ccccc4)CC3)nc2n1CC(=O)Nc1ccc(C(F)(F)F)cc1Cl` (stereo not drawn) are 7.27, less than 5.00 and 8.70.
Take `CCc1c(N2CCN(C(=O)c3ncnc(C)c3O)CC2)c(=O)n2nc(C3=CCOCCC3)nc2n1CC(=O)Nc1cc(C(F)(F)F)sc1Cl`: the pIC50 was 7.31 in assay [1], less than 5.00 in assay [2] and 8.65 in assay [3].
